Columns and labels:
[1] = in vivo; conditions: mouse, po
[2] = in vivo; conditions: rat, po

Compound: Cc1ccc(C(=O)c2ccc(CC(=O)O)n2C)cc1 [Tolmetin Na.2H2 O, 1-methyl-5-p-toluoylpyrrole-2-acetic acid, reference compound]
- LD50 [1]: 899 mg/kg
- LD50 [2]: 914 mg/kg
